ChEMBL document CHEMBL1153682, “Structure-activity-relationship pertaining to the north-west region of the kappa opioid agonist, U-50,488” (1994)

Legend:
[1] = tested on: Mus musculus; assay: Antinociceptive activity on mice by tail pinch assay after subcutaneous administration
[2] = tested on: Mus musculus; assay: Antinociceptive activity on mice by tail flick assay after subcutaneous administration
[3] = tested on: Mus musculus; assay: Antinociceptive activity on mice by chemical irritation (HCl writhing) stimulus modalities after subcutaneous administration

Structure (SMILES): CN(C(=O)Cc1ccc(Cl)c(Cl)c1)[C@H]1C=CCC[C@@H]1N1CCCC1
- ED50 [1]: 1 mg/kg
- ED50 [2]: 1 mg/kg
- ED50 [3]: 0.7 mg/kg
